The values below come from ChEMBL document CHEMBL1146771, “Identification of purine inhibitors of phosphodiesterase 7 (PDE7)” (Bioorg Med Chem Lett, 2004).

Assay [1] is described as follows: Inhibitory concentration ratio of PDE2 to that of PDE7.
Assay [2] in a line: Inhibitory concentration ratio of PDE1 to that of PDE7.
Assay [3] can be described thus: Inhibitory concentration ratio of PDE3 to that of PDE7.
Assay [4] in a line: Inhibitory concentration ratio of PDE4 to that of PDE7.
The nature of assay [5]: Inhibitory concentration ratio of PDE5 to that of PDE7.

On to `CCOC(=O)c1sc(Nc2nc(NCc3ccc(S(N)(=O)=O)cc3)c3c(ncn3CC)n2)nc1C`, for which the Ratio in assay [1] came out at 86; in assay [2], 86; in assay [3], 270; in assay [4] it was 50; in assay [5] it was 1.
